Measured values reported in PubChem BioAssay AID729 (The Scripps Research Institute Molecular Screening Center, 2007).
The list shows a part of the results, in another mix than the full data. Some results for these compounds are left out of this collection, so the calls shown say nothing about other tests. Active and inactive are the calls of the source. Rule as the data show it: active = activation above about 16%; inactive = the rest.

The chains behind the UniProt entries cited, without tags or fusion partners.
UniProt O95136, whole entry: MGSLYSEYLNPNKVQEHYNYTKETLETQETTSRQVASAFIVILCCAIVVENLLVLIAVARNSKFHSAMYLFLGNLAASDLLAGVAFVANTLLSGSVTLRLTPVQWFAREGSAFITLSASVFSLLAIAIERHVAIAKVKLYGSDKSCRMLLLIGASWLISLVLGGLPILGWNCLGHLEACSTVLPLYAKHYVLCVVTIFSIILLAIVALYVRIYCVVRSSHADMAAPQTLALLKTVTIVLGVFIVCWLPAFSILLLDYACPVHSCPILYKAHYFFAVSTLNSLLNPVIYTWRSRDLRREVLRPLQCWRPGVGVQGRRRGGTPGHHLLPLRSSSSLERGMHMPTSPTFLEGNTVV

Each compound was assayed against Sphingosine 1-phosphate receptor 2 (Homo sapiens) (UniProt O95136) (assay: S1P2 receptor agonists, primary screen, cell-based (AID 729;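 also: 0% = vehicle low control and 100% = maximal reference agonist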)). Conditions: S1P2-expressing cell line, agonist reporter read-out; at 4.5 µM; hits give high values.

Row | SMILES | activation
1 | CC(C)N1C(=O)CC2(CCN(CCOC(=O)C(O)(c3ccccc3)c3ccccc3)CC2)C1=O | inactive: -3.02%
2 | CN(C)c1cccc(C(=O)NCC2(N(C)C)CCCCC2)c1 | inactive: -1.2%
3 | O=C(OC1CN2CCC1CC2)C(CO)(c1ccccc1)c1ccccc1 (stereo not drawn) | inactive: -7.41%
